Assay results: ChEMBL document CHEMBL5150061, “Design and Synthesis of Fibroblast Growth Factor Receptor (FGFR) and Histone Deacetylase (HDAC) Dual Inhibitors for the Treatment of Cancer” (J Med Chem, 2022)
The source made the active and inactive calls. No cut-off for these calls is given here.

Sequences of proteins named here, by UniProt entry; tags and fusion partners are left off. A change or cut given only in a name is not applied to a line headed by its entry.
UniProt P17948, whole entry: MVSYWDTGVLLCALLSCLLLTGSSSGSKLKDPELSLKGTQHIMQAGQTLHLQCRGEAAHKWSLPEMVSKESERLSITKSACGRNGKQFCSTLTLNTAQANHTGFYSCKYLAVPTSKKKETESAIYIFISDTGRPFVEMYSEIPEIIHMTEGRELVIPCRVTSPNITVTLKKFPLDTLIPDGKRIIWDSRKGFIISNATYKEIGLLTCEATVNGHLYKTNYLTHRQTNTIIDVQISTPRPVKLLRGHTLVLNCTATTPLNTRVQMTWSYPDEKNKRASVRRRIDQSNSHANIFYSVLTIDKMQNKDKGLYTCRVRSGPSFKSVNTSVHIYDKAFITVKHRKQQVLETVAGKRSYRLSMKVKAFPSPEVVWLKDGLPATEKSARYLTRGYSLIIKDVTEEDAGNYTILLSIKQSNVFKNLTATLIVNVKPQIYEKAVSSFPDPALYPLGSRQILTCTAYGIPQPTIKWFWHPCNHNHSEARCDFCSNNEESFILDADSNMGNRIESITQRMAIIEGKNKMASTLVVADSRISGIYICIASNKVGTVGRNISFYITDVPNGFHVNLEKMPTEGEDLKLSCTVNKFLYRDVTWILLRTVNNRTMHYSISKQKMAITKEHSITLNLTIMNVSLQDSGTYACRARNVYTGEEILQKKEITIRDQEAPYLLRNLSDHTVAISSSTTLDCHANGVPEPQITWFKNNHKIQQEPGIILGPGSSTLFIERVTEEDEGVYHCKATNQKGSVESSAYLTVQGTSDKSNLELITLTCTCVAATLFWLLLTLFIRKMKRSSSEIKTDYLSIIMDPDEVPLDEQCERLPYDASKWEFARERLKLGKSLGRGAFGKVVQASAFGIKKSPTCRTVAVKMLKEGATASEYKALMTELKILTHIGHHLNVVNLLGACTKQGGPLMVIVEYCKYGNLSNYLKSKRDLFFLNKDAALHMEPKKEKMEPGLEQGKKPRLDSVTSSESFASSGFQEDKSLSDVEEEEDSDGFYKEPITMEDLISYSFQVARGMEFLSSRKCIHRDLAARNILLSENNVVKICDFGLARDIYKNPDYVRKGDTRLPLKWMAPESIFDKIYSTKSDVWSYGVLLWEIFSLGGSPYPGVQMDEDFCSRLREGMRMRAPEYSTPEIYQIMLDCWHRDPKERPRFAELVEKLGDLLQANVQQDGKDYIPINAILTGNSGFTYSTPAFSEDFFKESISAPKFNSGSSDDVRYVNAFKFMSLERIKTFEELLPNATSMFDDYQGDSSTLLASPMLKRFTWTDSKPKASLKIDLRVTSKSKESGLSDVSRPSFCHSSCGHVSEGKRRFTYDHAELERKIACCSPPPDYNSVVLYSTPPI
UniProt P07947, whole entry, looked up: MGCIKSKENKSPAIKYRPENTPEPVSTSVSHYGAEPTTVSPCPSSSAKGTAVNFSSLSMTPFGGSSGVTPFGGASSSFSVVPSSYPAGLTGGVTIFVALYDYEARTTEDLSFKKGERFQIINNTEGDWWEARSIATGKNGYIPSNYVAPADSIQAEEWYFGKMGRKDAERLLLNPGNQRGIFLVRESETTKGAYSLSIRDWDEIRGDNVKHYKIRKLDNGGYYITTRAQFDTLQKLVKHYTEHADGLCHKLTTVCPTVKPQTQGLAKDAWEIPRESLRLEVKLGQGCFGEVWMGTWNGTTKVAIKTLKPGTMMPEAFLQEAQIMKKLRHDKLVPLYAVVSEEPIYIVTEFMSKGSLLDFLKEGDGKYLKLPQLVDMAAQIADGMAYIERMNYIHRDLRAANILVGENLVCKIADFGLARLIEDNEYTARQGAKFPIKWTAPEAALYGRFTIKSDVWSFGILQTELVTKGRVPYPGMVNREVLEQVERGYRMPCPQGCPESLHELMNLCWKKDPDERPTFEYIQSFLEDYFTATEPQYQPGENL
UniProt O15379: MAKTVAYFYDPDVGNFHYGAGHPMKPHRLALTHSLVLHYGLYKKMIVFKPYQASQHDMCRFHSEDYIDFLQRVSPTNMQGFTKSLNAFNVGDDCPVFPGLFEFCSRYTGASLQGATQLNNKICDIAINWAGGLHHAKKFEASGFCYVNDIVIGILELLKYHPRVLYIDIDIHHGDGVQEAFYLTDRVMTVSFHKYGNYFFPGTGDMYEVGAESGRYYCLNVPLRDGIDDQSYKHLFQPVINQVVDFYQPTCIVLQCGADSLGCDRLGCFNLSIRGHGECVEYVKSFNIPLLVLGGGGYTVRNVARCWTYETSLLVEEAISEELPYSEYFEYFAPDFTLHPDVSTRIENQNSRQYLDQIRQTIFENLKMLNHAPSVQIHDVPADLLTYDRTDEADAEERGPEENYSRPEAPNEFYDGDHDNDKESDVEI
UniProt Q92769: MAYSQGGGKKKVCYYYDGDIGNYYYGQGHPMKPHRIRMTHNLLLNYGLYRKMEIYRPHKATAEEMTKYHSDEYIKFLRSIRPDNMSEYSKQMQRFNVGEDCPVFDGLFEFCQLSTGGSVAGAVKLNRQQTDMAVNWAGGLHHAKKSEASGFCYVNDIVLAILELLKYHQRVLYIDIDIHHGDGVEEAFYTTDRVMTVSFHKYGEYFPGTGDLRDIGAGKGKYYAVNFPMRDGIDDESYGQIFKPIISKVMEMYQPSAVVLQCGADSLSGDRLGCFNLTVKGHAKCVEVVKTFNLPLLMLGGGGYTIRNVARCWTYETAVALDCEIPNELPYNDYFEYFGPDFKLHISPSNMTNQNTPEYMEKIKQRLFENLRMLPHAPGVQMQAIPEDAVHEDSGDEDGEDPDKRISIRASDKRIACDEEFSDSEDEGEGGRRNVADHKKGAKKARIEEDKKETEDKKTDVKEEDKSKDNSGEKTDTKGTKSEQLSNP
UniProt Q9UQL6: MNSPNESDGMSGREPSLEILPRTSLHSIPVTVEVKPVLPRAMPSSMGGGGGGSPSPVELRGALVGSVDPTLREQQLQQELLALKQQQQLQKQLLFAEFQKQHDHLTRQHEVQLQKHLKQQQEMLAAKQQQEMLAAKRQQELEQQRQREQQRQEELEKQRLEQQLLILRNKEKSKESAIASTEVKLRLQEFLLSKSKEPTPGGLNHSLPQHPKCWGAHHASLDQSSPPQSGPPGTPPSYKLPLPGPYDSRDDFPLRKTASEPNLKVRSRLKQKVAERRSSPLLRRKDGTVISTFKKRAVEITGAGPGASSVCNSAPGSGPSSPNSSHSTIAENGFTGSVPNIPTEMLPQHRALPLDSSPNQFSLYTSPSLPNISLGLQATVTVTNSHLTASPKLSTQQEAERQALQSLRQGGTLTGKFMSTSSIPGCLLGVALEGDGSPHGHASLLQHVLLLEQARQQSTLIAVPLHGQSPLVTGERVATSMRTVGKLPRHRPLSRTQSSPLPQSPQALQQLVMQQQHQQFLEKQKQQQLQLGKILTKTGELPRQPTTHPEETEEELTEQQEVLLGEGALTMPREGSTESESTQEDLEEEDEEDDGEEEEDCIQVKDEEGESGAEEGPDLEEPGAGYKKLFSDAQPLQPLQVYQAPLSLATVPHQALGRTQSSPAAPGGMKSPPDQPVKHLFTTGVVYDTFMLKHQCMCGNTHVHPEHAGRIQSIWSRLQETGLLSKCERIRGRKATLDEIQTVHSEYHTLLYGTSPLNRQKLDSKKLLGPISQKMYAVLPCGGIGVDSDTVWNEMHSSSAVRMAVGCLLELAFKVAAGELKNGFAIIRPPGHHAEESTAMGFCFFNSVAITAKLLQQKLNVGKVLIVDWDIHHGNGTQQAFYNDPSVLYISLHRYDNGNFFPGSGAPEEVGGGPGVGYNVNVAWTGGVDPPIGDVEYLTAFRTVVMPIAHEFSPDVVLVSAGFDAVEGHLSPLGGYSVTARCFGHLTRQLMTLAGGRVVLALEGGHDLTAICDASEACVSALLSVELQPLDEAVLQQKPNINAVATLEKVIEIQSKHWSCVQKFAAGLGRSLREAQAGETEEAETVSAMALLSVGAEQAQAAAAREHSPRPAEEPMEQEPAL
UniProt Q8WUI4: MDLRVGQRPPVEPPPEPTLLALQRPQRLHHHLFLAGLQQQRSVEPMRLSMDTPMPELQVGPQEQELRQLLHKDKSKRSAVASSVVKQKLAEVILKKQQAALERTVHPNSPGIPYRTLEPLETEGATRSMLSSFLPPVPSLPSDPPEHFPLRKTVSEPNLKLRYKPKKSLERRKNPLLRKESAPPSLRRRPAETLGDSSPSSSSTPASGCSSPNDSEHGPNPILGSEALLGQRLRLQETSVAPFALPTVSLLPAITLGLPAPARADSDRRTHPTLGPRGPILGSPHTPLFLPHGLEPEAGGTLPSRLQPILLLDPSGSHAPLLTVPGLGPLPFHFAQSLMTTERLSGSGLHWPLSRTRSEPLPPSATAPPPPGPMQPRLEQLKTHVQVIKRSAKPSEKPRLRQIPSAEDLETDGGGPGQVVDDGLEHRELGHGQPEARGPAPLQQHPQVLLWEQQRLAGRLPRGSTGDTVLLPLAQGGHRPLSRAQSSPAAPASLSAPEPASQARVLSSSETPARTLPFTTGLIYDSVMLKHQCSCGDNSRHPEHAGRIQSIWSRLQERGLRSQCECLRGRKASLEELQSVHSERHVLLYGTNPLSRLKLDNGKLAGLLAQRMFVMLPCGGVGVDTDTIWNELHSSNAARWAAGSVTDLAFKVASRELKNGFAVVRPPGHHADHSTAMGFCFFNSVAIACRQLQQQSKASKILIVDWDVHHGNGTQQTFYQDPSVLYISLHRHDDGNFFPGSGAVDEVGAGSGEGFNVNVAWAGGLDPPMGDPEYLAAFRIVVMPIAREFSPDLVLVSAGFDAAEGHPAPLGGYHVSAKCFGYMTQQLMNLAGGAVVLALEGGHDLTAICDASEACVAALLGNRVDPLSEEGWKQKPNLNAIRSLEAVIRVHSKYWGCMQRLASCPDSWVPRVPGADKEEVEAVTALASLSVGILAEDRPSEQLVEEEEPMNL
UniProt Q96DB2: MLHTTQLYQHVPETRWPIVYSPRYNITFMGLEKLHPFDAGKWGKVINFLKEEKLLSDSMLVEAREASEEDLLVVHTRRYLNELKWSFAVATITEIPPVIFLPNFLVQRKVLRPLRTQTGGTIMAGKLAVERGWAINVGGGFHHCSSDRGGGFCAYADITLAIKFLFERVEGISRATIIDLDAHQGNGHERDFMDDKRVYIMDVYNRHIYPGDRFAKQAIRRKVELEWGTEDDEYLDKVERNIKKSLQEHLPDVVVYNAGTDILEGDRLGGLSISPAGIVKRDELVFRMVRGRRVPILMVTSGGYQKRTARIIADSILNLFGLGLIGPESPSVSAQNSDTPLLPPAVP
UniProt P56524: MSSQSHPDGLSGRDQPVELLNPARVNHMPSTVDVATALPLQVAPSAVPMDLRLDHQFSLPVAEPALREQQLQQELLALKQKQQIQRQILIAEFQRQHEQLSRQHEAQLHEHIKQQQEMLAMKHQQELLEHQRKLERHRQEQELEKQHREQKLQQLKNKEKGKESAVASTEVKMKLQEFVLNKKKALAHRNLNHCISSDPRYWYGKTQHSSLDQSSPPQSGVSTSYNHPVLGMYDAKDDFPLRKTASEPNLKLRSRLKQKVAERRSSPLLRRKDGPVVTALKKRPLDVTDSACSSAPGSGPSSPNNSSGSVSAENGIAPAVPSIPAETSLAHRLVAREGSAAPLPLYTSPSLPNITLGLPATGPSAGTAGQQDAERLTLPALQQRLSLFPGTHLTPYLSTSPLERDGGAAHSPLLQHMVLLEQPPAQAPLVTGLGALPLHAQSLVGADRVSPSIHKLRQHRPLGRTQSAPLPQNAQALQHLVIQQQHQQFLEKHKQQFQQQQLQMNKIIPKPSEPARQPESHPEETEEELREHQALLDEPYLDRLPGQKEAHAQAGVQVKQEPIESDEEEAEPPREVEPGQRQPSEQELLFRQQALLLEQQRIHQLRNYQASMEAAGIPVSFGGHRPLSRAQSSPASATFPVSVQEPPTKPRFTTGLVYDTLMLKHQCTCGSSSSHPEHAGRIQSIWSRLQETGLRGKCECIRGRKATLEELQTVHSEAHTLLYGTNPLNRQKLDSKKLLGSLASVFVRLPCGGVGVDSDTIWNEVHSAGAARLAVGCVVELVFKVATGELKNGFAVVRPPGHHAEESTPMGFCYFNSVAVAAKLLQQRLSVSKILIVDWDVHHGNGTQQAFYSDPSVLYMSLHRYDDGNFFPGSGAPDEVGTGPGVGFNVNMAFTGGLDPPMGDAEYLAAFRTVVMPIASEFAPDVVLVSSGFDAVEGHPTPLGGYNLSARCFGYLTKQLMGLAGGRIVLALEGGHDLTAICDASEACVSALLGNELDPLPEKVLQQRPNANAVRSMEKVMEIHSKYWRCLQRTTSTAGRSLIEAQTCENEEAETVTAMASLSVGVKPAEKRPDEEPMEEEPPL

Experiments:
[1] = system: Platelet-derived growth factor receptor alpha (Homo sapiens), P16234 [V561D]; conditions: dose 100.0 nM
[2] = target: Vascular endothelial growth factor receptor 1 (Homo sapiens) (UniProt P17948); conditions: dose 100.0 nM
[3] = target: Tyrosine-protein kinase Yes (Homo sapiens) (UniProt P07947); conditions: dose 100.0 nM
[4] = target: Proto-oncogene tyrosine-protein kinase receptor Ret (Homo sapiens) (UniProt P07949); conditions: dose 100.0 nM
[5] = target: Histone deacetylase (Homo sapiens) (UniProt Q13547+O15379+Q9UBN7+Q92769+Q9UQL6+Q8WUI4+Q9BY41+Q96DB2+P56524+Q9UKV0+Q969S8); conditions: SNU-16, dose 1-100 nM, time 36.0 hrs

inhibition [1]: > 90%
inhibition [2]: > 90%
inhibition [3]: > 90%
inhibition [4]: > 90%
inhibition [5]: Active
Compound: COc1cc(OC)cc(N(CCNC(C)C)c2ccc3ncc(-c4cnn(CCCCCCC(=O)NO)c4)nc3c2)c1
